From ChEMBL document CHEMBL5528068, “Structure-Activity Relationship Studies and Optimization of 4-Hydroxypyridones as GPR84 Agonists” (J Med Chem, 2024)
Active and inactive are the calls of the source. The rule behind the calls is not given here.

Tests used:
Format in all cases: functional, cell-based
[1] = biological target: T1, Free fatty acid receptor 2 (Homo sapiens) (UniProt O15552); assay: Antagonist activity at Gq-coupled human FFA2 expressed in Flp-In-T-REx-293 cells assessed as reduction in forskolin induced cAMP production at 10 uM preincubated for 20 mins in presence of IBMX followed by sodium propionate and forskolin addition for 25 mins by time-resolved fluorescence based assay; settings: time 45.0 min
T1 sequence (whole entry): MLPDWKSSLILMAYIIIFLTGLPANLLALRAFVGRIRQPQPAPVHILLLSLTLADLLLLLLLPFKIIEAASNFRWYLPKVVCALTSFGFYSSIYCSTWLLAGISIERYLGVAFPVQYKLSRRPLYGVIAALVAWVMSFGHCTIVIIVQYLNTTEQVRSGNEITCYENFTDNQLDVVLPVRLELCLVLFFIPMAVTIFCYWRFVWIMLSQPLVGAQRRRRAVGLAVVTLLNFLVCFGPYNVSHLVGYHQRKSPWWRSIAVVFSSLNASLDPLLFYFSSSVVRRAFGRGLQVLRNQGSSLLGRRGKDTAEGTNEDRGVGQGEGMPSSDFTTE

[2] = biological target: T1, Free fatty acid receptor 2 (Homo sapiens); assay: Agonist activity at Gq-coupled human FFA2 expressed in Flp-In-T-REx-293 cells assessed as forskolin induced cAMP production at 10 uM incubated for 25 mins in presence of IBMX by time-resolved fluorescence based assay
[3] = biological target: T2, Free fatty acid receptor 3 (Homo sapiens) (UniProt O14843); assay: Antagonist activity at human FFA3 expressed in Flp-In-T-REx-293 cells assessed as reduction in forskolin induced cAMP production at 10 uM preincubated for 30 mins in presence of IBMX followed by sodium propionate and forskolin addition for 45 mins by time-resolved fluorescence based assay; settings: time 75.0 min
T2 sequence (whole entry): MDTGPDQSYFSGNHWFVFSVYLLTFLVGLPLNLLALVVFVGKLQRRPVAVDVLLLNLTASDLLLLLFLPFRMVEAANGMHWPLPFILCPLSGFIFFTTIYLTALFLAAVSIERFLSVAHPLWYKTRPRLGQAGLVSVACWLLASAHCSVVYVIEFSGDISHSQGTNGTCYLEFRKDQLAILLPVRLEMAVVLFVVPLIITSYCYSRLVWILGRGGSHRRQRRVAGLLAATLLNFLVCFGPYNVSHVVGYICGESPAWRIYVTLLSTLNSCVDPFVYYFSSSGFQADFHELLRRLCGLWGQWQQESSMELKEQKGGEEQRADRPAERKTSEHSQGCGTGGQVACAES

[4] = biological target: T3, Free fatty acid receptor 4 (Homo sapiens) (UniProt Q5NUL3); assay: Agonist activity at FFA4 (unknown origin) expressed in HEK293T cells transfected with YFP/beta-arrestin 2N-Luc at 10 uM incubated for 5 mins by plate reader analysis
T3 sequence (whole entry): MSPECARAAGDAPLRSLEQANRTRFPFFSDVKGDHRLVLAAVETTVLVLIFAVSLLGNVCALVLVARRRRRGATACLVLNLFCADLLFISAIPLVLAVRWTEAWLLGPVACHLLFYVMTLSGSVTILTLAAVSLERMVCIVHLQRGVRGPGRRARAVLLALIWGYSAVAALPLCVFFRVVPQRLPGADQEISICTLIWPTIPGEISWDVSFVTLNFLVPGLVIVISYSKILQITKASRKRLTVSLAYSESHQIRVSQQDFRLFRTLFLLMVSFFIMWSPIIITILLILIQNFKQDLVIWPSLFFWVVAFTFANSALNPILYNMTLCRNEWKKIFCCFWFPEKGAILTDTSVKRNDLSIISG

[5] = biological target: T2, Free fatty acid receptor 3 (Homo sapiens); assay: Agonist activity at human FFA3 expressed in Flp-In-T-REx-293 cells assessed as forskolin induced cAMP production at 10 uM incubated for 45 mins in presence of IBMX by time-resolved fluorescence based assay
[6] = biological target: T3, Free fatty acid receptor 4 (Homo sapiens); assay: Antagonist activity at FFA4 (unknown origin) expressed in HEK293T cells transfected with YFP/beta-arrestin 2N-Luc at 10 uM preincubated for 15 mins prior to Nano-Glo addition for 10 mins followed by TUG-891 addition for 5 mins by plate reader analysis; settings: time 30.0 min

Activity [1]	Activity [2]	Activity [3]	Activity [4]	Activity [5]	Activity [6]	Structure (SMILES)
inactive	inactive	inactive	inactive	inactive	inactive	CCCc1ccc(CCc2cc(O)cc(=O)[nH]2)cc1
inactive	inactive	inactive	inactive	inactive	inactive	O=c1cc(O)cc(-c2ccc(Oc3ccccc3)nc2)[nH]1
